What was measured:
[1] = substrate: Cc1cn([C@H]2C[C@H](O)[C@@H](COP(=O)(O)OP(=O)(O)OP(=O)(O)O)O2)c(=O)[nH]c1=O; test: Continuous enzyme-coupled (Ppx1 / MDCC-PBP) real-time assay of SAMHD1 triphosphohydrolase activity; assay type: biochemical, human; conditions: other: GTP activator 0.2 mM, 25°C
Protocol: (§1) The steady-state kinetics of SAMHD1 were determined by a coupled-enzyme assay using Ppx1 and a fluorescent phosphate biosensor, MDCC-PBP. The reactions were set up in 20-μl volumes in 384-well low-protein-binding microplates (Corning, USA), and the time-dependent fluorescence signal was measured using a Tecan Saffire^2 multiwell plate reader (Männedorf, Switzerland). Solutions containing SAMHD1 (residues 115 to 626), Ppx1, MDCC-PBP, an activator, and an inhibitor (if present) were incubated for 5 min at 25°C before the reaction was initiated by the addition of the substrate. The final concentrations were 100 nM SAMHD1, 10 nM Ppx1, and 40 μM MDCC-PBP. […] The fluorescence intensity was recorded at 430 nm for excitation and 465 nm for emission wavelengths, with a 7-nm slit width, at 8- to 10-s time intervals over a period of 10 to 30 min. The standard curves were obtained by incubating 40 μM MDCC-PBP with different concentrations of phosphate (Pi) and measuring the fluorescence, as discussed above. The fluorescence response was linear and in the range of 0 to 20 μM Pi.
(§2) The steady-state rates were obtained from the time courses of Pi formation by linear regression of the data points in the linear phase of the reaction. […] Data from the three different experiments were analyzed by a least-squares fit using the equation for competitive inhibition. […]

[2] = substrate: Nc1nc(Cl)nc2c1ncn2[C@@H]1O[C@H](COP(=O)(O)OP(=O)(O)OP(=O)(O)O)[C@@H](O)[C@@H]1F; test: as above; assay type: biochemical, human; conditions: other: GTP activator 0.2 mM, 25°C
Protocol: as §1, §2

B1: SAMHD1 (residues 115 to 626) (Homo sapiens) (protein)
chain: MKVINDPIHGHIELHPLLVRIIDTPQFQRLRYIKQLGGGYYVFPGASHNRFEHSLGVGYLAGCLVHALGEKQPELQISERDVLCVQIAGLCHDLGHGPFSHMFDGRFIPLARPEVKWTHEQGSVMMFEHLINSNGIKPVMEQYGLIPEEDICFIKEQIVGPLESPVEDSLWPYKGRPENKSFLYEIVSNKRNGIDVDKWDYFARDCHHLGIQNNFDYKRFIKFARVCEVDNELRICARDKEVGNLYDMFHTRNSLHRRAYQHKVGNIIDTMITDAFLKADDYIEITGAGGKKYRISTAIDDMEAYTKLTDNIFLEILYSTDPKLKDAREILKQIEYRNLFKYVGETQPTGQIKIKREDYESLPKEVASAKPKVLLDVKLKAEDFIVDVINMDYGMQEKNPIDHVSFYCKTAPNRAIRITKNQVSQLLPEKFAEQLIRVYCKKVDRKSLYAARQYFVQWCADRNFTKPQDGDVIAPLITPQKKEWNDSTSVQNPTRLREASKSRVQLFKDDPM
notes: The catalytic domain of SAMHD1 (residues 115 to 626) was expressed and purified as previously described; made in house
In the case of B1, the kcat [1] is reported as 1.32 ± 0.07 s⁻¹ and the kcat [2] is reported as 0.91 ± 0.07 s⁻¹.
